Source: article PMC8704709, “Improved Anticancer Activities of a New Pentafluorothio-Substituted Vorinostat-Type Histone Deacetylase Inhibitor” (Pharmaceuticals, 2021)

Tested on: DU145 cells
Assay: Western blot in DU145 cells (acetyl-H3, PARP, EGFR, P-mTOR)
Type: cell-based, human
Details: 24 h
Protocol: Western blots were performed as described earlier. Cells were seeded in 100 mm petri dishes, grown to almost confluency, treated for 24 h, washed and frozen, followed by lysis with RIPA Buffer, added with one cOmplete™ Mini protease Inhibitor tablet/10 mL (Roche), and quantification with Pierce^TM BCA Protein Assay Kit (Thermo Fisher Scientific). Thereafter protein levels were normalized to untreated controls so equal protein loading of 20 µg/lane. Laemmli Buffer and β-mercaptoethanol were added before probes were desaturated at 96 °C for 10 min. First, 7.5% or 12% SDS gels (Biorad, Munich, Germany) were loaded with proteins and electrophoresis was done. Thereafter, proteins were transferred to activated polyvinylidene difluoride membranes (PVDF) by electroblotting. Finally, the membranes were blocked with 1% BSA and incubated with primary antibodies over night at 4 °C.
Blots were washed three times with 1% TBS-Tween and incubated with anti-mouse or anti-rabbit peroxidase-coupled anti-IgG secondary antibodies (1:5000–1:10,000) at room temperature for 60 min. Subsequently, antibody bondage was illustrated using Clarity and Clarity Max ECL Western Blotting Substrates (Biorad, Munich, Germany) for detection and Celvin-S developer (Biostep, software SnapAndGo Vs 1.8.1) for development. […]

## COc1cc2ncnc(Nc3ccc(F)c(Cl)c3)c2cc1OCCCN1CCOCC1 [gefitinib, reference compound]
  EGFR protein expression: no EGFR-suppressing effects
